Columns and labels:
[1] = Efflux ratio of permeability from basolateral to apical over apical to basolateral side in human Caco cells; conditions: Caco-2
in vitro = conditions: rat, hippocampal neurone

C=C(C)[C@@H]1CCC(C)=C[C@H]1c1c(O)cc(CCCCC)cc1O [CANNABIDIOL]
efflux ratio [1]: > 0.4 | selectivity ratio at 5 h (in vitro): 16

Reference: ChEMBL document CHEMBL3808335, “Discovery of KLS-13019, a Cannabidiol-Derived Neuroprotective Agent, with Improved Potency, Safety, and Permeability” (ACS Med Chem Lett, 2016)
